GIV-Gai inh – GIV-Galpha-i interaction inhibition. 210,000 compounds, 0.42% hits. percent of control (FP), % (no concentration beside the values). Galpha-i3/FITC-GIV peptide fluorescence polarization, 90 min; active compounds read low; scaled: aluminum fluoride 0%, vehicle 100%. AID 1224905. P08753;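 active = replicate mean at 85% of control or lower, very high polarization wells dropped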;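 note: wells of about 15 µL received 100 nL stock; the first replicate is given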
GIV Gai FP conf – GIV-Galpha-i3 inhibition, FP confirmation. shares compounds with GIV-Gai inh. FITC-GIV peptide binding to Galphai3, fluorescence polarization; active compounds read low. fluorescence polarization, mP at 100 µM. 580 compounds, 38% hits. AID 1259350;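 active = inhibition score of 15 or more, meaning 100 minus mean polarization as percent of control over three replicates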;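 also: lower mP means peptide displaced from Galphai3 so more inhibition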
GIV-Gai AS conf – GIV-Galpha-i3 inhibition, AlphaScreen confirmation; 580 compounds, 39% hits; AID 1259351; AlphaScreen Galphai3-GIV binding, purified proteins, 90 min; active compounds read low; shares compounds with GIV-Gai inh; AlphaScreen counts at 100 µM;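 active = inhibition score at or above a set limit, where the score is 100 minus the three-replicate mean percent of control signal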
Hits are given with their value; n = inactive; x = no result. Shown is part of a subset that was picked to be rich in hits.

SMILES	GIV-Gai inh	GIV Gai FP conf	GIV-Gai AS conf
Cc1cccc(CN2CC=C(c3noc(CCC(=O)Nc4ccc(Br)cc4C)n3)CC2)c1	n	x	x
COc1cc2c(no[n+]2[O-])n2nnnc12	80	n	11443
C=CCOC(=O)c1cc(-c2ccc(C=C3C(=O)NC(=O)NC3=O)o2)ccc1Cl	n	x	x
Cc1ccccc1C(=O)N/N=C/C12CC[C@@H](O)CC1(O)CC[C@@H]1[C@@H]2CCC2(C)C(C3=CC(=O)OC3)CCC12O (some centres undefined)	n	x	x
CC(C)c1ccccc1NC1=NCCS1	n	x	x
Cc1cccc(C)c1NC1=NCCS1	n	x	x
c1ccc2c(NC3=NCCS3)cccc2c1	83	n	35407
Cc1ccc(NC(=O)CCc2nc(C3=CCN(Cc4ccc(Cl)cc4)CC3)no2)cc1F	n	x	x
CC(C)CP(=O)(O)c1ccccc1	n	x	x
COc1cc(/C=C2\C(=O)NC(=O)N(c3ccccc3)C2=O)c([N+](=O)[O-])cc1OC	n	x	x
COc1cc(C=C2C(=O)NC(=O)NC2=O)ccc1OS(=O)(=O)c1ccccc1[N+](=O)[O-]	71	n	n
COc1cc(C=C2C(=O)NC(=O)NC2=O)ccc1OCc1ccc(C(=O)O)cc1	n	x	x
COc1ccc(C(=O)N2CCC3(C2)C(=O)N(C)c2ccc(OC)cc23)c(OC)c1 (centres undefined)	n	x	x
COCCNC(=O)Cn1cc(C=C2C(=O)N(C)C(=O)N(C)C2=O)c2ccccc21	n	n	n
CN1C(=O)C(=Cc2cn(CC(=O)N3CCCC3)c3ccccc23)C(=O)N(C)C1=O	n	x	x
CN1C(=O)C(=Cc2cn(Cc3ccc(Cl)cc3)c3ccccc23)C(=O)N(C)C1=O	n	x	x
